Source: patent US20030224416A1, “Schizophrenia related gene” (priority 2002, published 2003)

Test system: Kv3.1 α-subunit mRNA
Experiment: Experiment 1: in situ hybridization of Kv3.1 α-subunit mRNA in brain, chronic PCP rat model of schizophrenia with antipsychotic co-treatment
Type: in vivo

## Cc1cc2c(s1)Nc1ccccc1N=C2N1CCN(C)CC1 [Olanzapine, olanzapine]
DLStr, PCP + drug 3 mg/kg/day
  Kv3.1 α-subunit mRNA expression: 6.84 ± 0.42 PSL/mm^2
MG, PCP + drug 3 mg/kg/day
  Kv3.1 α-subunit mRNA expression: 24.56 ± 1.41 PSL/mm^2
SN, PCP + drug 0.3 mg/kg/day
  Kv3.1 α-subunit mRNA expression: 13.27 ± 1.21 PSL/mm^2
